{"sequences": {"note": "Protein sequences, listed by entry. Tags and fused reporters are not part of them.", "UniProt P61169, whole entry": "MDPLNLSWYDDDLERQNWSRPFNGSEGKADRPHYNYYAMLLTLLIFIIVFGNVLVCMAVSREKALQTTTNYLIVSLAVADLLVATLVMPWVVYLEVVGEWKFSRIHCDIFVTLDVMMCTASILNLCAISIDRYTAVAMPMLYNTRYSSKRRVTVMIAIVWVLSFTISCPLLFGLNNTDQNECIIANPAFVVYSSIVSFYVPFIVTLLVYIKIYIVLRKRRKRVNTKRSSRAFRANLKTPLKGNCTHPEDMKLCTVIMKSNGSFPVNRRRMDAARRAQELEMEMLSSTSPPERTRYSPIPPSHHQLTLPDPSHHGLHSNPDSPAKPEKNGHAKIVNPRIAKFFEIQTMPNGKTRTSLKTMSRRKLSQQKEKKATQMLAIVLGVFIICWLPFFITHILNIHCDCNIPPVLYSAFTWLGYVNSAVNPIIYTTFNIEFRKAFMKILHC"}, "source": "ChEMBL document CHEMBL1130285", "about": "“5-HT1A-versus D2-receptor selectivity of flesinoxan and analogous N4-substituted N1-arylpiperazines” (J Med Chem, 1997)", "biological_target": "D(2) dopamine receptor (Rattus norvegicus, UniProt P61169)", "assay": "In vitro displacement of [3H]spiperone from Dopamine receptor D2 binding site in rat striatum."}
{"smiles": "O=C(NCCN1CCN(c2ccccc2)CC1)c1ccc(F)cc1", "values": [{"measurement": "Ki", "value": 0.092, "unit": "µM"}]}
